The record followed here is ChEMBL document CHEMBL1138681, “Identification of structurally diverse growth hormone secretagogue agonists by virtual screening and structure-activity relationship analysis of 2-formylaminoacetamide derivatives” (J Med Chem, 2004).

By UniProt entry, the sequences of proteins in these tests, tags left out.
UniProt Q92847, whole entry: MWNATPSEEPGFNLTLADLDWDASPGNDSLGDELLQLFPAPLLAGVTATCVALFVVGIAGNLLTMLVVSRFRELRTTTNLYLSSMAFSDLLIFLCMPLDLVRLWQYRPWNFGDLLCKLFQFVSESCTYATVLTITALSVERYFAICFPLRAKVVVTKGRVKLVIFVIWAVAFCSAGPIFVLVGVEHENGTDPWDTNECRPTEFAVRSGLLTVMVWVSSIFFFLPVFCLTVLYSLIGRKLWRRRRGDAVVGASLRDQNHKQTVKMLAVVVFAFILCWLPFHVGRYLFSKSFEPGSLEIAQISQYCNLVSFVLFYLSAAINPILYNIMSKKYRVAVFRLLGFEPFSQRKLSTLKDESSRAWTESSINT

Molecules are shown by their SMILES. Activity calls are given as the source filed them. The rule behind the calls is not given here.

For assay [1], the target named is T1, Growth hormone secretagogue receptor type 1 (Homo sapiens, UniProt Q92847). Nature of the assay: Tested for growth hormone secretagogue activity in A93 cell line using a calcium flux assay at 10 uM (Relative to compound T1); NA means not active. The format is functional, cell-based.
The target in assay [2] is T1, Growth hormone secretagogue receptor type 1. Nature of the assay: Tested for growth hormone secretagogue activity in A93 cell line using a calcium flux assay at 10 uM (Relative to compound T1). In kind it is functional, cell-based.

With `CC(C)(C)NC(=O)C(c1ccc(F)cc1)N(CCCN1CCOCC1)C(=O)c1ccc(-c2ccccc2)[nH]1` (stereo not drawn), the outcome in assay [1] was inactive. As for `O=C(NC1CCCCC1)C(c1ccc(F)cc1)N(CCCN1CCOCC1)C(=O)c1ccc(-c2ccccc2)[nH]1` (stereo not drawn), in assay [1], the result was inactive. In the case of `CCN(CC)CCN(C(=O)c1ccc(CN2CCCCC2)o1)C(C(=O)NC1CCCCC1)c1ccc(F)cc1` (stereo not drawn), the Activity in assay [2] turned out to be 0.24.
